# Only some compounds are listed: those with a hit (about 1.3% of all), similar ones and a draw of the others.
# PINK1 modulator: modulators of PINK1 expression; PINK1 immunofluorescence, high-content cytometry, 24 h; AID 624263; Potency, µM (highest dose often 76.6 µM), for inactives: top-dose activation (PINK1 increase), most hits filed as activators; 410,000 compounds, 0.2% hits; active means well fitted activation curve with a large enough effect; inconclusive means small, poorly fitted or top-dose-only effect; cell line not stated here; further: potency means the concentration at half of the fitted maximal effect; % of control where 0% means no effect; nearly all actives have a fitted effect of over 65% in size
#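 A stable cell line was treated with compounds at 5 concentrations for 24 hours, with CCCP as control. PINK1 levels and mitochondrial localization were measured by immunofluorescence with mitochondrial, cell and nuclear markers after fixation, read by laser-scanning cytometry.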
# miR-21 reporter: raises the signal of a miR-21 reporter; Potency, µM (doses to about 38.3 µM), inactives show top-dose reporter change, positive = more light; HeLa miR-21 FLuc reporter, luciferase, 48 h; AID 2288; 340,000 tested, under 10 active; active = well fitted rising curve with a large enough effect; inconclusive = small, poorly fitted or top-dose-only effect; inactive = no such curve, though single readings can be large or run the other way;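 further: % of control where 0% means no effect; miR-21 action dims this reporter so a rising signal means less miR-21 action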
#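 HeLa cells stably expressing CMV-driven firefly luciferase with a downstream miR-21 binding sequence, endogenously expressing miR-21, were treated with titrations (up to about 40uM final) for 48 hours at 37 degree Celsius. Luciferase luminescence was read after lysis.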
# PTHR1 ag: PTHR1 (human) receptor agonism. HEK293 GP2 PTHR1 cells, GloSensor cAMP luminescence, 1 h. Q03431. 410,000 compounds, 0.075% hits. AID 743266. Potency, µM (titrated, usually from 115 µM), for the others: top-dose activation, usual class: activators; further: potency means the concentration at half of the fitted maximal effect; nearly all actives have a fitted effect of over 55% in size
#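 HEK-293-derived GP2 cells expressing PTHR1 and a GloSensor cAMP reporter, 3,000/well, plated overnight, given luciferin plus IBMX (each 0.5 mM as added) for 1 h at 37 °C, then compound for 1 h at 37 °C. Luminescence was read after 15 min at room temperature.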
# Giardia killer: Giardia lamblia killing; 340,000 compounds, 0.15% hits; activity change, % at 7.66 µM, hits read low; Giardia lamblia trophozoite viability; AID 540267; in the data active means activity change below about -80%; inconclusive means between about -30% and that limit;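 further: parasites exposed to compound for two days anaerobically before the ATP read; on the % scale 0 is the no-effect control and ±100 the full control effect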
#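 Each well holds 100 Giardia trophozoites and compound. After two days (48 hrs) at 37 deg C in anaerobic conditions, ATP is quantified by luminescence.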
# ALOX12 inh: inhibitors of human 12S-lipoxygenase ALOX12; P18054; purified 12hLO, xylenol orange hydroperoxide absorbance; Potency, µM (titrated, usually from 108 µM), for the others: at the highest dose activity change, negative = inhibition, usual class: inhibitors; 580,000 compounds, 1.1% hits; AID 1671190; further: potency means the concentration at half of the fitted maximal effect; on the % scale 0 is the no-effect control and ±100 the full control effect
#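 Hydroperoxide product was detected by ferrous iron/xylenol orange as the 573 to 405 nm absorbance ratio. Arachidonic acid at 40 uM (final) was turned over for 30 min at room temperature by 150 nM human 12hLO, pH 7.0 Hepes buffer, after 15 min compound preincubation.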
# ERG Ets-DNA blk: blocks human ERG Ets domain binding to DNA; 370,000 compounds, 0.028% hits; Potency, µM (doses to about 76.9 µM), for inactives: at the highest dose FP activity, negative = inhibition, actives largely listed as inhibitors; fluorescence polarization, His-ERG Ets domain / labelled DNA; AID 624246; active means well fitted inhibition curve with a large enough effect in the polarisation, with a control signal flat; inconclusive means small, poorly fitted or top-dose-only effect, or effect the other way, or a change in a side signal; inactive means no such curve, though single readings can be large or run the other way; the % refers to the polarisation;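 further: polarization taken with two DNA probes labelled with fluorescein and Texas red; potency means the concentration at half of the fitted maximal effect; % of control where 0% means no effect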
#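 His-tagged ERG Ets domain (1 uM in the protein solution; 300mM KCl, 50mM Tris-HCl, 1mM EDTA, 1mM DTT, pH 7.5) received compound, then a probe mix of 5 nM fluorescein-DNA and 100nM Texas-615-DNA. Fluorescence polarization was read for both dyes.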
# * marks the source's active call; other numbers are inactive results; i = inactive; ? = inconclusive; nt = not tested or not shown; [ ] = dose if it differs, or a comment. Unless noted, the call rests on the fitted dose curve; in most records, active means well fitted curve in the direction sought with a large enough effect; inconclusive means small, poorly fitted or top-dose-only effect, or another doubt; inactive means no such curve, though single readings can be large; an effect the other way counts as inactive or inconclusive.
[1] O=C(N/N=C/c1ccc([N+](=O)[O-])o1)c1cc(-c2cccc(Br)c2)nc2ccccc12
[2] Cc1cc2c(cc1C)N(C(=O)CCl)CCN2C(=O)CCl
[3] CCOCc1nc(C2CCCN2C(=O)Cc2cccc(OC)c2)no1 (stereo not given)
[4] N#Cc1c(-c2ccc(Cl)cc2)c(C#N)c(=O)n(N)c1N
[5] N#Cc1c(-c2ccc(Cl)cc2)n(O)c2ccccc12

entry no.	1	2	3	4	5
PINK1 modulator	11%	1%	nt	1%	35µM*
miR-21 reporter	-8%	nt	nt	1%	nt
PTHR1 ag	-13%	-40%	nt	i	-8%
Giardia killer	-86*	5	nt	-1	-18
ALOX12 inh	?	8.9µM*	1%	15%	nt
ERG Ets-DNA blk	-5%	-15%	nt	11%	2%

[6] Cc1nn(-c2cccc(Br)c2)c(C)c1[C@@H]1C=C[C@@H](NS(C)(=O)=O)C1
[7] O=C(NC(=S)NCc1ccc(-c2nc3ccccc3s2)cc1)c1ccco1
[8] NC(N)=NN=Cc1ccnc2ccccc12
[9] NC(=NCc1ccccc1)NN=Cc1ccnc2ccccc12
[10] C/C(=N\NC(=O)CN1CCOCC1)C(C)(C)C

entry no.	6	7	8	9	10
PINK1 modulator	nt	1%	1%	4%	10µM*
miR-21 reporter	nt	-47%	nt	nt	-8%
PTHR1 ag	nt	-12%	0%	-20%	-10%[57.5 µM]
Giardia killer	nt	9	nt	nt	8
ALOX12 inh	11µM*	11µM*	?	13µM*	13%
ERG Ets-DNA blk	nt	-4%	nt	nt	1%

[11] O=C(CN1CCOCC1)NN=C(c1ccccc1)c1ccccc1
[12] O=c1ccc2ccc(Oc3ccc(Cl)cc3[N+](=O)[O-])cc2o1
[13] C=CCN1C(=O)/C(=C/c2ccc(OC(C)=O)c(OCC)c2[N+](=O)[O-])SC1=S
[14] CCOc1c(OC(C)=O)ccc(/C=C/c2ccc3cccc(OC(C)=O)c3n2)c1[N+](=O)[O-]
[15] O=C(NCCc1ccncc1)C1CN(C(=O)CC2CCCC2)CC12CCOCC2 (stereo not given)

entry no.	11	12	13	14	15
PINK1 modulator	1%	-1%	4.5µM*	-4%[38.3 µM]	nt
miR-21 reporter	-4%	-10%	22%	13%	nt
PTHR1 ag	-8%	-17%	-35%	i	nt
Giardia killer	-3	0	0	-14	nt
ALOX12 inh	-5%	-1%	?	-27%	3%
ERG Ets-DNA blk	-23%	-12%	122%	3%	nt

[16] CCNC(=S)Nc1ccc(N(c2ccccc2)C(C)C)cc1
[17] CC(C)c1ccc(NC(=S)NN(c2ccccc2)c2ccccc2)cc1
[18] Cc1cc(C)n(CCNC(=O)[C@H]2O[C@@H](n3ccc(N)nc3=O)[C@H](O)[C@@H]2O)n1
[19] COc1ccc(N(C(=O)CNC(=O)c2cccs2)C(C(=O)NCC2CCCO2)c2ccccc2)cc1 (stereo not given)
[20] Cc1cccc(C)c1NC(=O)C(c1ccc(-c2ccccc2)cc1)n1c(=O)c(-c2ccco2)nc2ccccc21 (stereo not given)

entry no.	16	17	18	19	20
PINK1 modulator	5%[38.3 µM]	12%	0%	0%	nt
miR-21 reporter	0%	-1%	nt	-5%	nt
PTHR1 ag	i	-25%	-23%	i	i
Giardia killer	-4	17	nt	-6	nt
ALOX12 inh	4%	40µM*	50µM*	-54%	13µM*
ERG Ets-DNA blk	-8%	10%	nt	-9%[15.4 µM]	nt

[21] O=C(NCc1ccccc1)C(c1ccc(-c2ccccc2)cc1)n1c(=O)c(-c2ccco2)nc2ccccc21 (stereo not given)
[22] COc1ccc(C(C(=O)NC(C)(C)C)n2c(=O)c(-c3ccco3)nc3ccccc32)cc1 (stereo not given)
[23] Cc1cccc(C)c1NC(=O)C(c1ccccc1)n1c(=O)c(-c2ccccc2)nc2ccccc21 (stereo not given)
[24] CC(C)(C)NC(=O)C(c1ccc(-c2ccccc2)cc1)n1c(=O)c(-c2ccco2)nc2ccccc21 (stereo not given)
[25] CCCc1cc(C(=O)Nc2cc(C)on2)no1

entry no.	21	22	23	24	25
PINK1 modulator	nt	nt	nt	nt	1%
miR-21 reporter	nt	nt	nt	nt	-4%
PTHR1 ag	i	-12%	-5%	-29%	i
Giardia killer	nt	nt	nt	nt	-22
ALOX12 inh	14µM*	25µM*	-9%	40µM*	12%
ERG Ets-DNA blk	nt	nt	nt	nt	1%

[26] CC(c1nc2ccccc2[nH]1)n1c(=O)c(-c2ccco2)nc2ccccc21 (stereo not given)
[27] CC(c1nc2ccccc2[nH]1)n1c(-c2ccncc2)nc2ccccc21 (stereo not given)
[28] CCN1CCN(c2ccc(N=Cc3ccc(O)cc3O)cc2)CC1
[29] Cc1ccc(C(=O)/C=C\N(C)C)cc1
[30] CN(C)/C=C/C(=O)c1ccc(-n2cccc2)cc1

entry no.	26	27	28	29	30
PINK1 modulator	nt	nt	-2%	nt	0%
miR-21 reporter	nt	nt	-6%	nt	-58%
PTHR1 ag	i	i	i	nt	-5%
Giardia killer	nt	nt	-9	nt	-1
ALOX12 inh	13µM*	7%	-5%	56µM*	?
ERG Ets-DNA blk	nt	nt	-2%	nt	4%

[31] CN(C)/C=C\C(=O)c1ccc(Br)cc1
[32] CC(=O)c1ccc(N/C=C\C(=O)c2ccc(C)cc2)cc1
[33] CN(C)/C=C/C(=O)c1ccn(S(=O)(=O)c2ccccc2)c1
[34] CC(=O)Nc1ccc(N/C=C/C(=O)c2ccc(Cl)cc2)cc1
[35] Cc1ccc(NC(=O)c2c(-c3ccccc3)noc2C)nc1

entry no.	31	32	33	34	35
PINK1 modulator	nt	12%	-2%	11µM*	10%
miR-21 reporter	nt	-64%	-2%	-10%	9%
PTHR1 ag	nt	-16%	i	-19%	i
Giardia killer	nt	1	?	12	1
ALOX12 inh	4µM*	7%	50µM*	-12%	20%
ERG Ets-DNA blk	nt	-5%	8%	0%	-6%

# Next part, overlapping the part above by 3 compounds.
[33] CN(C)/C=C/C(=O)c1ccn(S(=O)(=O)c2ccccc2)c1
[34] CC(=O)Nc1ccc(N/C=C/C(=O)c2ccc(Cl)cc2)cc1
[35] Cc1ccc(NC(=O)c2c(-c3ccccc3)noc2C)nc1
[36] Cc1cnc(C(=O)N2CC(=O)N(c3ccccc3Cl)CC2C)cn1 (stereo not given)
[37] CCNC(=O)[C@@H]1C[C@H](N)CN1C(=O)c1ccc(NC(C)=O)cc1C
[38] CCOC(=O)c1ccc(NC(=S)NCCCN2CCCC2=O)cc1
[39] CN(C)/C=C/C(=O)c1ccc(Cl)cc1
[40] CN(C)/C=C/C(=O)c1ccc(-c2ccc(Cl)cc2Cl)o1

entry no.	33	34	35	36	37	38	39	40
PINK1 modulator	-2%	11µM*	10%	nt	nt	4%	-1%[38.3 µM]	0%
miR-21 reporter	-2%	-10%	9%	nt	nt	-1%	-16%	-18%
PTHR1 ag	i	-19%	i	nt	nt	-29%	-18%[57.5 µM]	-22%
Giardia killer	?	12	1	nt	nt	9	27	-24
ALOX12 inh	50µM*	-12%	20%	38%	29%	-27%	16µM*	1.6µM*
ERG Ets-DNA blk	8%	0%	-6%	nt	nt	-5%	5%	3%

[41] CN(C)/C=C/C(=O)c1cccc(Cl)c1
[42] O=C(O)c1ccc(-c2ccc(Cl)cc2Cl)o1
[43] Cc1ccc([N+](=O)[O-])c(OCCCN2CCC(Cc3ccccc3)CC2)c1
[44] O=[N+]([O-])c1cccc(OCCN2CCC(Cc3ccccc3)CC2)c1
[45] O=Cc1cc(Cl)ccc1OCCN1CCC(Cc2ccccc2)CC1

entry no.	41	42	43	44	45
PINK1 modulator	-2%	-2%	2%	11%	-1%
miR-21 reporter	-18%	-29%	nt	-6%	5%
PTHR1 ag	i	-14%[57.5 µM]	-84%	i	-30%
Giardia killer	-3	2	30	12	-5
ALOX12 inh	-9%	?	-46%	0.63µM*	2.2µM*
ERG Ets-DNA blk	1%	-5%	-5%	-4%	-8%

[46] O=C(Nc1ccc(Cn2cccn2)cc1)c1ccc(COc2ccccc2Br)cc1
[47] COC(=O)c1sc(=S)sc1C(=O)OC
[48] CC1(C)Cc2cccc(OCC(=O)Nc3ccc(OCC(N)=O)cc3)c2O1
[49] COc1cc(NC(=O)c2noc3c2CCC3)c(OC)cc1Cl

entry no.	46	47	48	49
PINK1 modulator	1%	nt	-1%	11µM*
miR-21 reporter	6%	-6%	-10%	1%
PTHR1 ag	10%	-28%[57.5 µM]	i	i
Giardia killer	9	-4	12	-10
ALOX12 inh	-28%	45µM*	-15%	26%
ERG Ets-DNA blk	-5%	nt	0%	6%

# Screens: PubChem, National Center for Advancing Translational Sciences (NCATS)
